Experimental data reported in US20060019329A1, “Method of screening for protein inhibitors and activators” (priority 1988, published 2006).

Sequences of proteins named here, by UniProt entry; tags and fusion partners are left off. Residues count along the entry.
UniProt P68403, 2-671: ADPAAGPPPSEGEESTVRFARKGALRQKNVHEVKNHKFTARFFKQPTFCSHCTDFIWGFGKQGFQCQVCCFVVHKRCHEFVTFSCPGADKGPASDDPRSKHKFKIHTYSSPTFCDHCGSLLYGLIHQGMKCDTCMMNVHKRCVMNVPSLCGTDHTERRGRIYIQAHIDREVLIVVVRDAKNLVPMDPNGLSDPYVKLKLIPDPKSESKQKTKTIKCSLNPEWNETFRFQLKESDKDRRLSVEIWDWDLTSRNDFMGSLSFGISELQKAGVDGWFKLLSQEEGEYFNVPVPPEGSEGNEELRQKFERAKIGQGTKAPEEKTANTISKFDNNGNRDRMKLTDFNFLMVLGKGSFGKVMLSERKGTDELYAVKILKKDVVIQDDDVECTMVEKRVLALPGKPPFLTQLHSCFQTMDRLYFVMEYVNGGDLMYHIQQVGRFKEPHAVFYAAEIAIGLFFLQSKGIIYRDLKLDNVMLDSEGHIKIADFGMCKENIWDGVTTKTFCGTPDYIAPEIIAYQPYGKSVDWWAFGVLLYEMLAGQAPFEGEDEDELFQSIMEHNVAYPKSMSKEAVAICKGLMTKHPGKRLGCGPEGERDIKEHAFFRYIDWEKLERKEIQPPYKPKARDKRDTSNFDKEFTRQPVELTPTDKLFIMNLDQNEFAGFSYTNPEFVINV

Molecular target: high affinity phorbol-ester binding sites (PKC) (Rattus norvegicus, UniProt P68403)
Conditions: read-out: affinity constant (Kd) of phorbol ester binding; R6-PKC3 cell line; intact cells; Scatchard; approximately the same in both cell lines

`CCCC(=O)O[C@@H]1[C@@H](C)[C@@]2(O)[C@@H](C=C(CO)C[C@]3(O)C(=O)C(C)=C[C@@H]23)[C@@H]2C(C)(C)[C@]12OC(=O)CCC` [3H-PDBu] gave a Kd of 16 nM.
